Test results as given in the Kinase Knowledgebase extract (Sharma et al. 2016).

Protein sequences, listed by entry. Tags and fused reporters are not part of them.
UniProt Q16539, whole entry, looked up: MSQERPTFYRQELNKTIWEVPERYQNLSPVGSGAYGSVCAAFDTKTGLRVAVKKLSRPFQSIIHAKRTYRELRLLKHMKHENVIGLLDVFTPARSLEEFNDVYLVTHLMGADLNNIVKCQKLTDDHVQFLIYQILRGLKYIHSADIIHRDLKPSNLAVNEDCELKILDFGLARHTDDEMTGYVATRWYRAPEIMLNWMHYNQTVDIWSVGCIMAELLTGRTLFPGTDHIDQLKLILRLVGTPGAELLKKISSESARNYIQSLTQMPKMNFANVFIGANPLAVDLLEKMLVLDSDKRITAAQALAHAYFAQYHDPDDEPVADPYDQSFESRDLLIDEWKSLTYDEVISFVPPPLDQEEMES

Target: MAPK14 (human) (UniProt Q16539)
Assay: Inhibition of MAPK14 Kinase Activity

Compound	IC50
CC(C)Cn1c(N)nc2ccc(-c3[nH]c(-c4c(Cl)cccc4Cl)nc3-c3ccc(F)cc3F)nc21	3.9 nM
CC(C)Cn1c(N)nc2ccc(-c3[nH]c(C(C)(C)C)nc3-c3ccc(F)cc3F)nc21	3.9 nM
CC(C)(C)Cn1c(N)nc2ccc(-c3[nH]c(-c4c(F)cccc4Cl)nc3-c3ccccc3)nc21	3.2 nM
